Values of other authors, collected in publication PMC3254090 (ACS chemical neuroscience, 2011).

Details: cited from earlier work

Substance: 6-hydroxytrypargine [compound 6]
- toxicity: highly toxic
